For assay [1], the system named is FLT3. Kind of assay: FLT3 degradation in HEK 293T cells. The class given is cell-based, human.
In assay [2] the test system is Ba/F3-FLT3-ITD, MOLM13-luc+ and MOLM14 cells. Kind of assay: Drug combination study, combination index. The assay is classed as cell-based. The following applies: with midostaurin or crenolanib, fixed-ratio; CI<1 = synergy.
Assay [3] concerns Ba/F3-FLT3-ITD cells expressing TKD point mutations. Briefly: Proliferation of Ba/F3-FLT3-ITD cells expressing TKD point mutations. The class given is cell-based, murine. The following applies: approximately 24 hr treatment.
Assay [4] concerns the target USP7 (Homo sapiens, UniProt Q93009). Briefly: MALDI-TOF DUB assay with diubiquitin as substrate, dose response. The assay is classed as biochemical. The settings on record: read-out: USP7 IC50.

Sequences of proteins named here, by UniProt entry; tags and fusion partners are left off.
UniProt Q93009, whole entry: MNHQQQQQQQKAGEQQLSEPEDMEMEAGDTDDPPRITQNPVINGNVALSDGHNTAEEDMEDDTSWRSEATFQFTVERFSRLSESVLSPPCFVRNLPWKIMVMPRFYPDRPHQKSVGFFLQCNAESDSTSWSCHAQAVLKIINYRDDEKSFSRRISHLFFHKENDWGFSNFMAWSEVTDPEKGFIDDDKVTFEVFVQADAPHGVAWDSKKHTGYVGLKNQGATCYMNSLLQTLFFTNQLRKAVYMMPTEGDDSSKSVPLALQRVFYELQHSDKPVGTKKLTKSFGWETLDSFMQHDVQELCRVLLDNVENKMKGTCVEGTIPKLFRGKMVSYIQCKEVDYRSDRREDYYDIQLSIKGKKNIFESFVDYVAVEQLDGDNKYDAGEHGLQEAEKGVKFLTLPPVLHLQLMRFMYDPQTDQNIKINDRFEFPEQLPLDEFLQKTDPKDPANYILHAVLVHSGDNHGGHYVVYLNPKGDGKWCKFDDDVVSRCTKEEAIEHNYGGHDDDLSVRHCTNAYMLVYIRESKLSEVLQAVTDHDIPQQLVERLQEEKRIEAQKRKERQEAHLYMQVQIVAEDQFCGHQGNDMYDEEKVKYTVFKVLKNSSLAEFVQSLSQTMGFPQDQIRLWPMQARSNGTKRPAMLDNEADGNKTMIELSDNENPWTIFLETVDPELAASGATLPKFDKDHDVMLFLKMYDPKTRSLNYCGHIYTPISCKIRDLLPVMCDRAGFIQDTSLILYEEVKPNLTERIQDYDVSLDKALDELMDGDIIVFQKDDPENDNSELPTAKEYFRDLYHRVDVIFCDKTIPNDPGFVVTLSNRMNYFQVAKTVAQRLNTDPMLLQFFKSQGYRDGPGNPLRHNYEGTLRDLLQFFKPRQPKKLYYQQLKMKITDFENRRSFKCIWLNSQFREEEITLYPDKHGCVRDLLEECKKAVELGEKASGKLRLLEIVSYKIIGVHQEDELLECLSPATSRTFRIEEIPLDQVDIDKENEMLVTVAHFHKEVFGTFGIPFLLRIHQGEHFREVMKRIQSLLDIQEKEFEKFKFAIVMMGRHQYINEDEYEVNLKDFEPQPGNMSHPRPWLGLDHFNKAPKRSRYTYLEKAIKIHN

For HBX19818, the “concentration needed for FLT3 degradation relative to mutant FLT3-driven cells” value in assay [1] was “approximately 2 fold”. In addition, in assay [2], the “combination index analysis of anti-proliferative effects” value was “synergistic”. For the same substance, the “potency against TKD point mutants versus Ba/F3-FLT3-ITD cells” value in assay [3] is on record as “equipotent”. Also, the IC50 in assay [4] worked out at 57 µM.
